Measurements published in patent publication US7199127B2 (dated 2007).

The chains behind the UniProt entries cited, without tags or fusion partners.
UniProt P25099, whole entry: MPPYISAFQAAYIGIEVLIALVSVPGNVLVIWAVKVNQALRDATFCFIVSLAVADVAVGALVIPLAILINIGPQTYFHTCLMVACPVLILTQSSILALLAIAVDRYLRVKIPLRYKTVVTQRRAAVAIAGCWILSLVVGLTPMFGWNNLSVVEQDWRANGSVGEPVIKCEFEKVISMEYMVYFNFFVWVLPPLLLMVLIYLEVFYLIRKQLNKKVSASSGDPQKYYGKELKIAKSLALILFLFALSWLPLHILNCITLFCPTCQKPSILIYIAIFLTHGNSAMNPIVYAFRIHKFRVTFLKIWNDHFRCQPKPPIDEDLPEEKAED
UniProt P30543, whole entry: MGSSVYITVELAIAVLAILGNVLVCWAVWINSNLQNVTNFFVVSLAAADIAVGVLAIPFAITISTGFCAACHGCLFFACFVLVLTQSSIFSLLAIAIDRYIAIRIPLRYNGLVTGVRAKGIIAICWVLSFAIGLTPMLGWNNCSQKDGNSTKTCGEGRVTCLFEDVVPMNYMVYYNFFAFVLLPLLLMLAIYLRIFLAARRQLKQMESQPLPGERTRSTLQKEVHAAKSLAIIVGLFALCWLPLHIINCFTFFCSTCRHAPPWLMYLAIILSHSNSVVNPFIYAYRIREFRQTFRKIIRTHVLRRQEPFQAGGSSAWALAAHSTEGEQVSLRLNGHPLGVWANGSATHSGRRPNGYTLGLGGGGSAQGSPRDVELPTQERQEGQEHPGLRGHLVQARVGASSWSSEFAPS
UniProt P30542, whole entry: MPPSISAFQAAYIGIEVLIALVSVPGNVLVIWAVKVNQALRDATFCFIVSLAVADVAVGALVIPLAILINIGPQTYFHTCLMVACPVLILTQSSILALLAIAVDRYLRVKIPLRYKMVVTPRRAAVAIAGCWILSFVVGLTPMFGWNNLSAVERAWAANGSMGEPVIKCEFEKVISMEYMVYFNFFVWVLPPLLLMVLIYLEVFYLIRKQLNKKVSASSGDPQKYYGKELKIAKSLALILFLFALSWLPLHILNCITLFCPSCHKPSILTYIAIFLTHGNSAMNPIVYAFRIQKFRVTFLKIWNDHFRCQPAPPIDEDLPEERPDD

Experiments:
[1] = target: rA1 adenosine receptor (Rattus norvegicus, UniProt P25099); test: Binding of [3H]PIA to A1 (rat)
[2] = target: rA2a adenosine receptor (Rattus norvegicus, UniProt P30543); test: Binding of [3H]CGS21680 to A2a (rat)
[3] = target: hA1 adenosine receptor (Homo sapiens, UniProt P30542); test: Binding of [3H]PIA to A1 (human); conditions: read-out: Ki hA1, Cheng-Prusoff
[4] = target: hA2a adenosine receptor (Homo sapiens, UniProt P29274); test: Binding of [3H]CGS21680 to A2a (human); conditions: 10 μM

A Ki [1] of 0.82 µM and a Ki [2] of 0.47 µM were found for `CNC(=O)[C@H]1O[C@@H](n2cnc3c(NCc4cccc(I)c4)nc(Cl)nc32)C(O)[C@H]1O` (stereo partly shown) [CL-IB-MECA, N^6-(3-iodobenzyl)-2-chloro-5′-(N-methylcarbamoyl)adenosine, reference compound] in this work.
`CNC(=O)[C@]1(n2cnc3c(NCc4cccc(I)c4)nc(Cl)nc32)SC[C@H](O)[C@@H]1O` [Compound 12, (2R,3S,4R)-2-[2-chloro-6-(3-iodobenzylamino)purin-9-yl)-3,4-dihydroxytetrahydrothiophene-2-carboxylic acid methyl amide] was tested, and the Ki [3] was 0.11 µM and the “% Displacement hA2a” value [4] was 50%.
